{
  "source": "patent US7901894B2",
  "about": "“Kinase inhibitors” (The Research Foundation of State University of New York, priority 1999, dated 2011)",
  "target": "pp60^c-src (Homo sapiens, UniProt P12931)",
  "test": "src Cellular Mimetic assay (RR-SRC phosphorylation)",
  "data": [
    {"smiles": "N#C/C(=C\\c1ccc(O)c(O)c1)C(N)=S", "note": "[Tyrophostin A47, Tyrphostin A47, reference compound]", "values": [
      {"measurement": "% Inhibition at 100 μM (std. dev.)", "result": "43 (+/−3) %"}
    ]}
  ]
}
